Assay results published in article PMC5224920, “Assessing the mechanism and therapeutic potential of modulators of the human Mediator complex-associated protein kinases” (eLife, 2016).

By UniProt entry, the sequences of proteins in these tests, tags left out.
UniProt P49841, whole entry, species assumed: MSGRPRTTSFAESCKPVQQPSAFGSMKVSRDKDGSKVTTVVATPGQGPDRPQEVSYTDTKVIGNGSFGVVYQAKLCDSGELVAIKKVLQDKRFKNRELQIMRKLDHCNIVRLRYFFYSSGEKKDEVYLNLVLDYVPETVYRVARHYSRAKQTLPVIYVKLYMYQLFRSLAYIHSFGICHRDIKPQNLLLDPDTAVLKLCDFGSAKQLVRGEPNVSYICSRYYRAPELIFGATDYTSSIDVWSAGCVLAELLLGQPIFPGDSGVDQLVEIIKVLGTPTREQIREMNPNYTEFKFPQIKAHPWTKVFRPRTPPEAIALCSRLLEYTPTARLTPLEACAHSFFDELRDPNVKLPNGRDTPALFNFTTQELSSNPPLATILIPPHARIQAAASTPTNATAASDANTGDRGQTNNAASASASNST
UniProt Q04759, whole entry, species assumed: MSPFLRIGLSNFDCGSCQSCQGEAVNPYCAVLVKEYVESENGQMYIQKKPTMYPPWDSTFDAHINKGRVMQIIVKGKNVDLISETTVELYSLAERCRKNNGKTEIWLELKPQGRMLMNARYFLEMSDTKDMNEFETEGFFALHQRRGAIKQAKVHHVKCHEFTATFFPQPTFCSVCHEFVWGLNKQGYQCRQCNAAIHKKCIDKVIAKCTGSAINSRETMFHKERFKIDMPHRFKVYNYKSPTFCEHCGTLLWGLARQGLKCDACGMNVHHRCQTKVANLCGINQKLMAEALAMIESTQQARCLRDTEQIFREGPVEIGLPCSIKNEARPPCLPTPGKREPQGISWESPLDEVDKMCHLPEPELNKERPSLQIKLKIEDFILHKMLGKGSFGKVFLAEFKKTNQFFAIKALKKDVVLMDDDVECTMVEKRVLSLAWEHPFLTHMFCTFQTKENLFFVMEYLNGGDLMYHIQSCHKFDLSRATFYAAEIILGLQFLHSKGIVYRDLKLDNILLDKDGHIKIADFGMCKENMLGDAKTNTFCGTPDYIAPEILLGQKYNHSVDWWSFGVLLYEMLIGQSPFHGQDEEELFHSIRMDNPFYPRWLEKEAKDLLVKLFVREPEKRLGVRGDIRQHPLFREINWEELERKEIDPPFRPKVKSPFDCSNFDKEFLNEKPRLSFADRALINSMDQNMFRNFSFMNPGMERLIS

Experiments:
LS174T [1] = experiment: LS174T basal WNT-pathway luciferase reporter; conditions: Homo sapiens, read-out: LS174T IC50
COLO205 [2] = experiment: 24 hour TCF/LEF reporter assay, COLO205; type: cell-based; conditions: Homo sapiens, COLO 205, 24 h, read-out: 24 hour TCF/LEF Reporter assay IC50
RKO [3] = experiment: 24 hour reporter assay, RKO negative control (EEF1A1 promoter-reporter); type: cell-based; conditions: Homo sapiens, read-out: 24 hour TCF/LEF Reporter assay IC50
HT29 = experiment: 96 hour proliferation GI50, HT29; conditions: Homo sapiens, HT-29, 96 h, read-out: 96 hour GI50
LS180 [4] = experiment: 96 hour proliferation GI50, LS180; conditions: Homo sapiens, LS180, 96 h, read-out: 96 hour GI50
SW837 [5] = experiment: 96 hour proliferation GI50, SW837; conditions: Homo sapiens, SW837, 96 h, read-out: 96 hour GI50
RKO [6] = experiment: 96 hour proliferation GI50, RKO; conditions: Homo sapiens, read-out: 96 hour GI50
SW948 = experiment: 96 hour proliferation GI50, SW948; conditions: Homo sapiens, SW948, 96 h, read-out: 96 hour GI50
p-STAT1^SER727 = experiment: Inhibition of STAT1 SER727 phosphorylation in cells (target-engagement biomarker); conditions: read-out: p-STAT1^SER727 IC50
[7] = system: LS513 human colorectal cancer xenograft; experiment: LS513 human colorectal cancer xenograft, tumor growth inhibition; type: in vivo; conditions: 70 x 2 (3/7 d) and x 1 (2/7 d)b mg/kg x doses/day, day 17, P <0.001
Experimental: PDX experiments were conducted at Oncotest (Germany).

COLO205 [8] = experiment: 96 hour proliferation GI50, COLO205; conditions: Homo sapiens, COLO 205, 96 h, read-out: 96 hour GI50
SW620 = experiment: 96 hour proliferation GI50, SW620; conditions: Homo sapiens, SW-620, 96 h, read-out: 96 hour GI50
[9] = system: hyperplastic intestinal crypt stem and TA cells; experiment: In vivo stem cell analysis, Dox-inducible activated beta-catenin mice; set-up: species or system mouse; conditions: 75 mg/kg x 3 over 24 hr
Experimental: In contrast, the gene expression in the TA fraction following treatment with 1 was similar to the effect of reducing the level of Dox from 2.0 to 0.1 mg/ml, but was different from the Dox withdrawal condition (Figure 5E). […] This implies that the inhibition of CDK8/19 by 1 reduces, rather than eliminates, WNT signaling in the oncogenically-activated stem cell compartment and it is this that alters the proportion of stem cells to proliferative TA cells in the hyperplastic crypt.
Crypt structures were isolated from inducible Tet-O-β-catenin mice following treatment regimes described in Figure 5—figure supplement 1 ([Jardé et al., 2013]). Mice were orally gavaged with 75 mg/kg 1 × 3 over 24 hr and doxycycline in drinking water supplemented with an i.p. dose of 0.1 mg/ml or 2.0 mg/ml doxycycline in PBS at time of gavage to maintain levels. Isolated crypts were dissociated into single cells, then resuspended in staining medium containing DAPI and the antibodies shown in Figure 5—source data 1.

GSK3β = GSK3β (Homo sapiens, UniProt P49841); experiment: Off-target kinase IC50, GSK3β; type: biochemical
PRKCQ = PRKCQ (Homo sapiens, UniProt Q04759); experiment: Off-target kinase IC50, PRKCQ; type: biochemical
SW837 [10] = experiment: 24 hour TCF/LEF reporter assay, SW837; type: cell-based; conditions: Homo sapiens, SW837, 24 h, read-out: 24 hour TCF/LEF Reporter assay IC50
LS513 = experiment: 96 hour proliferation GI50, LS513; conditions: Homo sapiens, LS-513, 96 h, read-out: 96 hour GI50
DLD1 [11] = experiment: 96 hour proliferation GI50, DLD1; conditions: Homo sapiens, DLD-1, 96 h, read-out: 96 hour GI50
DLD1 [12] = experiment: 24 hour TCF/LEF reporter assay, DLD1; type: cell-based; conditions: Homo sapiens, DLD-1, 24 h, read-out: 24 hour TCF/LEF Reporter assay IC50
[13] = system: hyperplastic intestinal crypt stem and TA cells; set-up: method as in Dale et al., 2015; conditions: Dox-inducible activated beta-catenin mouse model; ref Dale et al., 2015; cited from earlier work
LS174T [14] = experiment: 24 hour TCF/LEF reporter assay, LS174T; type: cell-based; conditions: Homo sapiens, read-out: 24 hour TCF/LEF Reporter assay IC50
LS174T [15] = experiment: 96 hour proliferation GI50, LS174T; conditions: Homo sapiens, read-out: 96 hour GI50
[16] = system: HCT116 human colorectal cancer cell line xenografts; experiment: HCT116 human colorectal cancer xenograft, tumor growth inhibition; type: in vivo; conditions: 70 x 2 (5/7 d) mg/kg x doses/day, day 15, P <0.001
LS180 [17] = experiment: 24 hour TCF/LEF reporter assay, LS180; type: cell-based; conditions: Homo sapiens, LS180, 24 h, read-out: 24 hour TCF/LEF Reporter assay IC50

Cn1cc(-c2ccc(-c3cncc(Cl)c3N3CCC4(CCNC4=O)CC3)cc2)cn1 [CMPD 1]
IC50 (LS174T [1]): 23.1 ± 10.9 nM
IC50 (COLO205 [2]): 19 nM
IC50 (RKO [3]): > 30 µM
GI50 (HT29): > 30 µM
GI50 (LS180 [4]): > 30 µM
GI50 (SW837 [5]): 6.8 µM
GI50 (RKO [6]): > 30 µM
GI50 (SW948): > 30 µM
IC50 (p-STAT1^SER727): 23.3 ± 14.8 nM
TGI [7]: 81%
GI50 (COLO205 [8]): > 30 µM
GI50 (SW620): > 30 µM
Crypt cell population distribution (stem vs TA cells) [9]: shift in the population distribution from stem cell to TA
IC50 (GSK3β): 690 nM
IC50 (PRKCQ): 122 nM
IC50 (SW837 [10]): 17 nM
GI50 (LS513): > 30 µM
GI50 (DLD1 [11]): > 30 µM
IC50 (DLD1 [12]): 54 nM
Dose sufficient to inhibit WNT signaling [13]: > 37.5 mg/kg
IC50 (LS174T [14]): 34 nM
GI50 (LS174T [15]): > 30 µM
TGI [16]: 60%
IC50 (LS180 [17]): 25 nM
